From patent US20200040085A1

Target: recombinant HLA-DQ2.5/33 mer gliadin peptide (human)
Experiment: bead-based flow cytometry: HLA-DQ2.5/33 mer gliadin peptide on streptavidin beads, antibody titrated, blocking of D2 TCR tetramer-PE binding [panel DQ2.5/D2 TCR neutralization]

IC50 (read off the curve) [µg/mL]	Substance
0.04	DQN0016 (antibody)
0.04	DQN0139 (antibody)
0.02	DQN0157 (antibody)
